## Binding of CDR-mutated scFvs to a peptide of the spike HR2 region

Data: MIT Lincoln Laboratory AlphaSeq set, Li et al. 2023, doi:10.1038/s41467-023-39022-2, as distributed in FLAb.

Binding partner: SARS-CoV-2 spike HR2 peptide, sequence PDVDLGDISGINAS.

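The parent was found by panning a naive human phage display library on the peptide. This is the validation round: designs drawn from the data on random variants, tested in the same kind of assay. Several design methods are mixed in this list. The assay is AlphaSeq: two haploid yeast populations carry antibody and antigen on their surface. Binding brings cells together so that they mate, and sequencing counts the barcode pairs among the diploids. Each replicate has its own calibration line, from reference interactions of the BCL2 family. There are six technical replicates.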

Parent scFv Ab-14: VH joined to VL by the linker GGGGSGGGGSGGGGS. Changes lie in the light chain CDRs alone.
VH: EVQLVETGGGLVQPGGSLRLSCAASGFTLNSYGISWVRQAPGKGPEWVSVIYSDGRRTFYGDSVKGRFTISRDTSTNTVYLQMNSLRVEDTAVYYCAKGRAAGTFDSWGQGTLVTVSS
VL: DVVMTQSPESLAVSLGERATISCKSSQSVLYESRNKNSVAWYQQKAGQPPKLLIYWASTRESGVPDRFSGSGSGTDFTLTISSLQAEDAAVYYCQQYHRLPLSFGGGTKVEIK

The parent's light chain CDRs are KSSQSVLYESRNKNSVA, WASTRES, QQYHRLPLS; each variant's own CDRs replace them letter for letter. Numbers give log10(Kd / nM), so 0 is 1 nM and 3 is 1 µM. Smaller is tighter. A mean of the replicates is given; it leaves out those without a signal. "no signal" means that the variant was in the library but no mating with the target was seen in any replicate; the authors take this as a sign of poor binding, and no number exists. As a blank, each scFv also met three strains without target: over all light chain designs, 4% of these pairings were detected, typically at 2.64 and seldom below 1.59. Also given: how often the same scFv was detected with the empty control strains. The authors' rule: three or more of the six replicates give a measured affinity, fewer mean a poor binder. The range of this assay differs from that of the first round, and the authors advise against merging the two. The parent sequence was in this pool as ten entries: three were never detected, three once, and four in most replicates, with averages from 0.34 to 2.37.

"mean, log10 nM",detected,empty controls,CDR-L1,CDR-L2,CDR-L3
0.60,6/6,1/18,KIDGQRSYQGGRERAIA,DANIRQR,QQYNRLPLV
1.10,1/6,0/18,AFTNSIFYGQRDDNSIA,HADELVK,QQYFRFPLA
-0.17,6/6,0/18,KVQQSVLYESRNKNSVA,NASQRES,QQYHRLPLS
-0.07,6/6,2/18,KLPQSQLYESRNKNQVA,SASTREM,QQYHRLPLS
-0.28,6/6,1/18,KLDQSVLYESRNKNSVA,NASQRLS,QQYHRLPLS
-0.32,6/6,1/18,NVDISQNTNYNHKANVA,DHDERVG,QQYSRLPLS
0.14,6/6,0/18,KLQQSWLYESRMKNSVA,NASQRES,QQYHRLPLS
0.05,6/6,0/18,KQSQEFLYESRNKNSVA,DASTRES,QQYHRLPLS
-0.21,6/6,1/18,KSSQSWLYESRNKNSVA,GASCRES,QQYHRLPLS
2.00,6/6,0/18,KQSQSVLYESRDKNSVA,MASTRES,QQYHRLPLS
0.22,6/6,1/18,KLEQSWLYESRNKNSVA,HASQRES,QQYHRLPLS
2.02,1/6,0/18,KSSQSVIYESRNQNSVA,WASTRES,QQYHRLPLS
0.47,6/6,1/18,KLQMQKLQWSRNKNSVA,EASTRES,QQYHRLPLS
0.04,6/6,1/18,NVKAMLNMWARDIHNVA,HADERAS,QQYSRLPLG
0.33,6/6,3/18,KVSQSVLYESRNWNSVA,NASTRES,QQYHRLPLS
-0.10,6/6,1/18,KSSQSVLFQDRNKNSVA,DASTRES,QQYHRLPLS
0.67,6/6,1/18,HISTSMRYESSLKKAIA,NAQTRES,QQYHRLPLS
0.02,6/6,0/18,KISQSELYESRNKNSVA,WATTRES,QQYHRLPLS
0.89,6/6,2/18,KLIQSVAMSSRNKDSIA,DNSTREN,QQYHRLPLS
0.23,6/6,0/18,FIPQSGLYDNRNVNSVA,SASTRLS,QQYHRLPLS
2.25,4/6,1/18,KLGETYEGEKKQRNSVA,HNTMREN,QQYDRLPLE
0.73,6/6,0/18,KLRQSTAYLMENKNSVA,ELTTRGN,QQYFRLPLS
2.45,1/6,1/18,SLGLMTMLEEYVRNSVA,NNSTRED,QQYDRLPLS
0.25,6/6,0/18,VFQGQWDGVTTTNSAVA,NVDERME,QQYNRLPLM
0.82,6/6,1/18,KLYVSTMLESHNKDSIA,DLSTRGN,QQYHRLPLS
1.11,6/6,0/18,NFSQMVLTGSTLRNSVA,HASTRCN,QQYHRLPLI
2.70,1/6,0/18,IVSQLMLWGWHAKNSIA,EAQTRIN,QQYDRLPLF
0.90,6/6,0/18,TLVGNIQYGGIMIKSIA,DNVQRAN,QQYYRLPLS
0.75,6/6,1/18,NVGQLMDGGTRNRNNVA,HQSTRED,QHYHRLPLS
-0.08,6/6,1/18,KFLQSVLYESRDKNSVA,HASTRED,QQYHRLPLS
1.09,6/6,0/18,MISQLFMYGMRNYNSVA,QASTRES,QQYDRLPLI
-0.17,6/6,3/18,KSSISFLEESRNKNSVA,EASTRES,QQYHRLPLS
0.11,6/6,0/18,KLGNMTGIESHAKNSLA,DANRRED,QQYHRLPLS
-0.11,6/6,1/18,KVDQEVDGQSRNKNSVA,DASQREE,QQYHRLPLS
0.28,6/6,1/18,KFSQSVLYESRNKNSVA,QASTRES,QQYHRLPLS
0.38,6/6,3/18,KLSQSVEYESRNKNSVA,NASTRLS,QQYHRLPLS
0.67,6/6,1/18,KLSQLFYKESRQKNNVA,EMTTRGS,QQYDRLPLS
2.72,3/6,1/18,KSSQAVLYESRNKNSVA,WASTRES,QQYHRLPLS
no signal,0/6,0/18,KLSQSELYESRCKNNVA,AASQRES,QQYHRLPLS
no signal,0/6,0/18,KSQQSCLYESRNKNSVA,WASTRER,QQYHRLPLS
1.15,6/6,0/18,KISQMSTIESITHNSVA,QVSTRES,QQYDRLPLS
no signal,0/6,0/18,KLTKYQYNWTSHYQAVA,ESNTRAT,QSYYRLPFS
1.73,4/6,0/18,ALEMDTLGQKPKQNNIA,NDRVSTE,QQYYMLPLS
-0.49,6/6,3/18,KVSQSELYESRNKNSVA,NASTRES,QQYHRLPLS
0.14,6/6,0/18,KLTMITGLEKVSKNNVA,EMETRMR,QQYNRLPLS
0.63,6/6,4/18,KSSQSVEYESFNKNSVA,NASTRES,QQYHKLPLS
0.74,6/6,0/18,KLVNFMNRGTHHTSNIA,DAQTRLD,QQYYRLPLA
0.72,6/6,0/18,KWSQSVEYEQRDKNSVA,NASTRCQ,QQYHRLPLS
no signal,0/6,2/18,SLAESAHMESRNKNSVA,DNSTRES,QHYHRLPLS
-0.35,6/6,1/18,KVSQSAPYEDRNLNNVA,HASTRES,QQYHRLPLS
1.81,6/6,1/18,KSSQSVEYESTNKNSVA,WASTRES,QQYHRLPLS

The first 7 entries again:

CDR-L1,CDR-L2,CDR-L3,"mean, log10 nM",detected,empty controls
KIDGQRSYQGGRERAIA,DANIRQR,QQYNRLPLV,0.60,6/6,1/18
AFTNSIFYGQRDDNSIA,HADELVK,QQYFRFPLA,1.10,1/6,0/18
KVQQSVLYESRNKNSVA,NASQRES,QQYHRLPLS,-0.17,6/6,0/18
KLPQSQLYESRNKNQVA,SASTREM,QQYHRLPLS,-0.07,6/6,2/18
KLDQSVLYESRNKNSVA,NASQRLS,QQYHRLPLS,-0.28,6/6,1/18
NVDISQNTNYNHKANVA,DHDERVG,QQYSRLPLS,-0.32,6/6,1/18
KLQQSWLYESRMKNSVA,NASQRES,QQYHRLPLS,0.14,6/6,0/18